# Measurements: PMC6530574
# Molecular target: HiLyte Fluor 488-labeled Aβ(1-40) (UniProt P05067)
# Assay: FRET or BRET
substance,measurement,value
TTR-594 with hRBP bound (from UniProt P02766 21-147; P02753 19-201) (complex; other documents disagree on this pair),Kd,1900 nM
